Source: patent publication US10450421B2, “Synthesis of multiarm poly[(R)-3-hydroxybutyrate] and its derivatives” (AGENCY FOR SCIENCE, TECHNOLOGY AND RESEARCH, priority 2015, dated 2019)
In brackets after ≈: the same amount, converted by molar mass.

Experiments:
S. aureus = assay: Antimicrobial test, MIC against S. aureus; type: cell-based; conditions: Gram-positive bacteria S. aureus (n = 2)
Procedure: (§1) The solutions based on the Q-PHB-PDMAEMA were tested for efficacy in killing clinically significant pathogens: the […] and Gram-negative bacteria (E. coli).

E. coli = assay: Antimicrobial test, MIC against E. coli; type: cell-based; conditions: Gram-negative bacteria E. coli (n = 2)
Procedure: as §1

Which MIC (S. aureus) does the source give for CC[C@H](C)[C@H](N)C(=O)N[C@@H](CC(C)C)C(=O)N1CCC[C@H]1C(=O)N[C@@H](Cc1c[nH]c2ccccc12)C(=O)N[C@@H](CCCCN)C(=O)N[C@@H](Cc1c[nH]c2ccccc12)C(=O)N1CCC[C@H]1C(=O)N[C@@H](Cc1c[nH]c2ccccc12)C(=O)N[C@@H](Cc1c[nH]c2ccccc12)C(=O)N1CCC[C@H]1C(=O)N[C@@H](Cc1c[nH]c2ccccc12)C(=O)N[C@@H](CCCNC(=N)N)C(=O)N[C@@H](CCCNC(=N)N)C(N)=O [Indolicidin] here?
Its MIC is 130 mg/L (≈ 68.2 µM).

And the MIC (E. coli)?
Its MIC is greater than 250 mg/L.
